Assay results reported in ChEMBL document CHEMBL1139745, “Synthesis and biological study of 4-aminopyrimidine-5-carboxaldehyde oximes as antiproliferative VEGFR-2 inhibitors” (Bioorg Med Chem Lett, 2006).

Assays:
Format in all cases: functional, cell-based
Settings in all cases: Homo sapiens
[1] = test system: HeLa; experiment: Antiproliferative activity against HeLa cells
[2] = test system: HCT-116; experiment: Antiproliferative activity against HCT116 cells
[3] = test system: A-375; experiment: Antiproliferative activity against A375 cells

SMILES	IC50 [1]	IC50 [2]	IC50 [3]
Cc1cc2c(F)c(Oc3ncnc(N)c3/C=N/OCCN3CCOCC3)ccc2[nH]1	699 nM	1160 nM	339 nM
Cc1cc2c(F)c(Oc3ncnc(N)c3/C=N/OCCCN(C)C)ccc2[nH]1	4330 nM	4290 nM	1600 nM
C#CCO/N=C/c1c(N)ncnc1Oc1ccc2[nH]c(C)cc2c1F	28 nM	28 nM	–
Cc1cc2c(F)c(Oc3ncnc(N)c3/C=N/OCCN(C)C)ccc2[nH]1	3230 nM	4250 nM	501 nM
